Publication PMC4601014

Biological target: GST-SV40 NLS (SV40)
Assay: ELISA; solid phase (microtiter-plate) binding assay; plates coated with 15 ng GST-NLS or GST per well; His/S-ΔIBB importin-α1 in PBS, 0.1% Tween20, 3% BSA, 2 mM DTT, 0.2 mM PMSF overnight at 4 °C; EDC cross-linking; detection with S-protein-HRP; one-site binding fit; triplicate

His/S-ΔIBB importin-α1 (mouse, residues 70–529), wild-type (from UniProt P52293 70-529) (domain or fragment)
Kd: 5.1 nM
